Test results from US9675697B2 (THE REGENTS OF THE UNIVERSITY OF MICHIGAN, priority 2013, dated 2017).

Target: BRD4 BD2 (Homo sapiens (Human), UniProt O60885)
Assay: FP competitive binding assay using Cpd. No. 350 as the probe

COc1cc2c(cc1-c1c(C)noc1C)[nH]c1nc(C)nc(-c3cc(C(=O)NC4CCN(C5COC5)CC4)cc(C(C)(C)C)c3)c12 [Cpd. No. 322]
Ki: 7.4 nM
